In publication PMC10699647 (PLOS Biology, 2023):

Columns and labels:
CMKLR1 Y276^6.51A = experiment: Ca^2+ flux assay, CMKLR1 variant Y276^6.51A; assay type: cell-based, human; details: poor cell surface expression of the variant
CMKLR1 R224^5.42Q = experiment: Ca^2+ flux assay, CMKLR1 variant R224^5.42Q; assay type: cell-based, human
CMKLR1 R224^5.42A = experiment: Ca^2+ flux assay, CMKLR1 variant R224^5.42A; assay type: cell-based, human
CMKLR1 R178^4.64A = experiment: Ca^2+ flux assay, CMKLR1 variant R178^4.64A; assay type: cell-based, human
CMKLR1 R178^4.64K = experiment: Ca^2+ flux assay, CMKLR1 variant R178^4.64K; assay type: cell-based, human
CMKLR1 R178^4.64Q = experiment: Ca^2+ flux assay, CMKLR1 variant R178^4.64Q; assay type: cell-based, human
[1] = system: primary human macrophages; experiment: Macrophage differentiation assay, surface markers by flow cytometry (MFI fold-change); details: 72 hours; for CD86 MFI fold-change / CD163 MFI fold-change / CD206 MFI fold-change / HLA.DR MFI fold-change: normalized to M0 (medium), 10 ng/ml (each)
[2] = target: T1, wild-type human CMKLR1 (chemokine-like receptor 1), cryo-EM construct with the N-terminal peptide of the … (Homo sapiens (Human), UniProt P07550); experiment: cryo-EM, co-purification/SEC; chemerin9 agonist; Gβ1γ2 and scFv16 present; apyrase (nucleotide-free); dominant-negative Gαi1 (S47N, G203A, E245A, A326S); co-expressed and purified as a complex in LMNG/CHS
T1 chain: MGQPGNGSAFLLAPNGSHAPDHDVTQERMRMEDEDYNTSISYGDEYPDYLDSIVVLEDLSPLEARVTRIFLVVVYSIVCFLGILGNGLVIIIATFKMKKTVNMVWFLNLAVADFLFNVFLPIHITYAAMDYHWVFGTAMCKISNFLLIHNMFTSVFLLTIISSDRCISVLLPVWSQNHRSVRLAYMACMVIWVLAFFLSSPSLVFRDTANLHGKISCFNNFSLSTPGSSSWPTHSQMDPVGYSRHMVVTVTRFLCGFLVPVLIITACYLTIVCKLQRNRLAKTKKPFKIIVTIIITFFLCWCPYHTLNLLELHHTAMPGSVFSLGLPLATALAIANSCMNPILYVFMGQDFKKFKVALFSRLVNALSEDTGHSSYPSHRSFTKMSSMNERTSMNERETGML

In the case of YFPGQFAAS [[A8]-C9], the activity in words (CMKLR1 Y276^6.51A) is reported as “None of the mutations of H95^2.60 or Y276^6.51 rescued the activity”.

For “YFPGQFAFS-NH2 [C9-NH2, carboxylate group of Ser157 changed to carboxamide]”, the “signaling activity in words” value (CMKLR1 R224^5.42Q) was “partially rescued the loss of activity”, the “signaling activity in words” value (CMKLR1 R224^5.42A) was “partially rescued the loss of activity” and the “signaling activity in words” value (CMKLR1 R178^4.64A) was “no activity”. For the same molecule, the “signaling activity in words” value (CMKLR1 R178^4.64K) was “no activity” and the “signaling activity in words” value (CMKLR1 R178^4.64Q) was “no activity”.

B1: IL-10: 10 ng/ml IL-10 supplement used as M2 reference (protein, UniProt P22301 19-178, looked up)
Interleukin-10: SPGQGTQSENSCTHFPGNLPNMLRDLRDAFSRVKTFFQMKDQLDNLLLKESLLEDFKGYLGCQALSEMIQFYLEEVMPQAENQDPDIKAHVNSLGENLKTLRLRLRRCHRFLPCENKSKAVEQVKNAFNKLQEKGIYKAMSEFDIFINYIEAYMTMKIRN
With B1 the “CD86 MFI fold-change” value ([1]; replicate (donor) column 1) was 0.9059, the “CD163 MFI fold-change” value ([1]; replicate (donor) column 1) was 1.001 and the “CD206 MFI fold-change” value ([1]; replicate (donor) column 1) was 1.0748. For the same molecule, the “HLA.DR MFI fold-change” value ([1]; replicate (donor) column 1) was 0.735, the “CD86 MFI fold-change” value ([1]; replicate (donor) column 2) was 0.8124 and the “CD163 MFI fold-change” value ([1]; replicate (donor) column 2) was 2.034. The “CD206 MFI fold-change” value ([1]; replicate (donor) column 2) was 1.264, the “HLA.DR MFI fold-change” value ([1]; replicate (donor) column 2) was 0.8861 and the “CD86 MFI fold-change” value ([1]; replicate (donor) column 3) was 0.8979. For the same molecule, the “CD163 MFI fold-change” value ([1]; replicate (donor) column 3) was 0.4674, the “CD206 MFI fold-change” value ([1]; replicate (donor) column 3) was 1.211 and the “HLA.DR MFI fold-change” value ([1]; replicate (donor) column 3) was 0.4678. The “CD86 MFI fold-change” value ([1]; replicate (donor) column 4) was 0.8073, the “CD163 MFI fold-change” value ([1]; replicate (donor) column 4) was 1.009 and the “CD206 MFI fold-change” value ([1]; replicate (donor) column 4) was 0.934. For the same molecule, the “HLA.DR MFI fold-change” value ([1]; replicate (donor) column 4) was 0.5752 and the “HLA-DR expression in words” value ([1]; primary human macrophages, 10 ng/mL (each), vs M0, n = 4 donors) was “down-regulation”.

B2: dominant negative form of human Gαi1 (DNGαi1) (protein)
chain: TLSAEDKAAVERSKMIDRNLREDGEKAAREVKLLLLGAGESGKNTIVKQMKIIHEAGYSEEECKQYKAVVYSNTIQSIIAIIRAMGRLKIDFGDSARADDARQLFVLAGAAEEGFMTAELAGVIKRLWKDSGVQACFNRSREYQLNDSAAYYLNDLDRIAQPNYIPTQQDVLRTRVKTTGIVETHFTFKDLHFKMFDVGAQRSERKKWIHCFEGVTAIIFCVALSDYDLVLAEDEEMNRMHASMKLFDSICNNKWFTDTSIILFLNKKDLFEEKIKKSPLTICYPEYAGSNTYEEAAAYIQCQFEDLNKRKDTKEIYTHFTCSTDTKNVQFVFDAVTDVIIKNNLKDCGLF
B2: binds [2].
